SMILES strings stand for the structures.

Chains of the proteins cited; added tags and fusions are not shown. Residues count along the entry.
UniProt Q06124, 1-525 limits assumed: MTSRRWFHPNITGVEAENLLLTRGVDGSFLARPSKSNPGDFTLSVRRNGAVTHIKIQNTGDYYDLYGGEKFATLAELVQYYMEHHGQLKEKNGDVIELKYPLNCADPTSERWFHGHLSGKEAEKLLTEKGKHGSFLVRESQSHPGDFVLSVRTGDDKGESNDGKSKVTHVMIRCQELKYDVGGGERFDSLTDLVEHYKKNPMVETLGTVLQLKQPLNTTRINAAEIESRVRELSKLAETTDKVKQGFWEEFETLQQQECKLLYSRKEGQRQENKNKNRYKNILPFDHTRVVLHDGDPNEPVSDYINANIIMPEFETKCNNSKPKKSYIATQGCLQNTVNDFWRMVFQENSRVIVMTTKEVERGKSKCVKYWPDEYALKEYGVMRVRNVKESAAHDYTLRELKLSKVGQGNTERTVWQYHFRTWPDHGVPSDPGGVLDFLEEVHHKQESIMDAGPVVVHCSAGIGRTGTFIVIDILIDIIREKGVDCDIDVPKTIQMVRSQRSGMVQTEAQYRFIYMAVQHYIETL

The values that follow come from patent US20220289753A1, “SHP2 INHIBITORS” (IRBM S.P.A., priority 2019, published 2022).

The target in experiment [1] is SHP-2 enzyme (Met1-Leu525) (Homo sapiens, UniProt Q06124). Description: SHP2 inhibition enzymatic assay (DiFMUP substrate, IRS1 peptide activation). The conditions noted are these: read-out: SHP2 wt - IC50, activated by 500 nM IRS1 peptide, 75 μM DiFMUP substrate. The experiment is classed as biochemical.
Experiment [2] has as its system ERK phosphorylation in KYSE-520 cells. Briefly: Phospho-ERK cellular assay (Advanced phospho-ERK1/2 (Thr202/Tyr204) TR-FRET kit). Particulars: read-out: pERK IC50, 2 h at 37° C. The experiment is classed as cell-based.

For orientation: IC50 means the midpoint of a concentration-inhibition curve. In the case of `N[C@@H]1c2nc(Cl)sc2CC12CCN(c1nc3nc(Sc4cccnc4C(F)(F)F)cnc3[nH]1)CC2`, the values for the half-inhibitory concentration (IC50) in experiment [1] and in experiment [2] were under 500 nM and under 1000 nM, respectively.
